Laboratory results published in patent US7915223B2, “Antimicrobial agents” (priority 2004, dated 2011).

Assays:
E. coli = assay: Susceptibility to plasma proteases (MIC after pre-incubation in human plasma), E. coli; conditions: after 18 hours incubation
[1] = tested on: methicilin resistant Staphylococcus aureus (CI 15903); assay: microbe, parasite or virus in culture; type: cell-based; conditions: read-out: MIC MR S.a.

| Structure (SMILES) | inactivation after incubation with plasma enzymes (E. coli) | MIC [1] [µM] |
| --- | --- | --- |
| CCCCCCCCCCCC(=O)N[C@@H](CCCCN)C(=O)NCCCCCCCC(=O)N[C@@H](CCCCN)C(=O)NCCCCCCCC(=O)N[C@@H](CCCCN)C(=O)NCCCCCCCC(=O)N[C@@H](CCCCN)C(=O)NCCCCCCCC(=O)N[C@@H](CCCCN)C(=O)NCCCCCCCC(=O)N[C@@H](CCCCN)C(N)=O | did not display any degree of inactivation |  |
| C[C@@H](O)[C@H]1C(=O)N2C(C(=O)O)=C(SCCN=CN)C[C@H]12 [Imipenem] |  | > 50 |
